Results reported in article PMC6151500 (Molecules : A Journal of Synthetic Chemistry and Natural …, 2017).

Amino acid sequences for entries named in this document (tags omitted). Residues count along the entry.
UniProt P22303, 32-614 D105N: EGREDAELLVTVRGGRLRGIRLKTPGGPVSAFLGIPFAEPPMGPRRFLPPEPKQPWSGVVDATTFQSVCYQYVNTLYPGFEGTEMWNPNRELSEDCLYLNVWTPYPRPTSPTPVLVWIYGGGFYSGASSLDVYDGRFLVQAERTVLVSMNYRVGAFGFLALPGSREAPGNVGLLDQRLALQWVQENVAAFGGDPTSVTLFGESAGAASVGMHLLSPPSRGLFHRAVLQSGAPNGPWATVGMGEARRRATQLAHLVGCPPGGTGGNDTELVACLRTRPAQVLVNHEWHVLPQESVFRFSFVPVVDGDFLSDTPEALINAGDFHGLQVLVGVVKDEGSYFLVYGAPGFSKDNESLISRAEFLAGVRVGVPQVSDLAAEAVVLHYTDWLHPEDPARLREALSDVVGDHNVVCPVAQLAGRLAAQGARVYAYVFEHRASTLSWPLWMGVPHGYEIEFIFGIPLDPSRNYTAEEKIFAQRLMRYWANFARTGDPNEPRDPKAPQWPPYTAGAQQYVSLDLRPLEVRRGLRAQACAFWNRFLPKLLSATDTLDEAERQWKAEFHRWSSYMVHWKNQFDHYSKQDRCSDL
UniProt P22303, 32-614 Y372A: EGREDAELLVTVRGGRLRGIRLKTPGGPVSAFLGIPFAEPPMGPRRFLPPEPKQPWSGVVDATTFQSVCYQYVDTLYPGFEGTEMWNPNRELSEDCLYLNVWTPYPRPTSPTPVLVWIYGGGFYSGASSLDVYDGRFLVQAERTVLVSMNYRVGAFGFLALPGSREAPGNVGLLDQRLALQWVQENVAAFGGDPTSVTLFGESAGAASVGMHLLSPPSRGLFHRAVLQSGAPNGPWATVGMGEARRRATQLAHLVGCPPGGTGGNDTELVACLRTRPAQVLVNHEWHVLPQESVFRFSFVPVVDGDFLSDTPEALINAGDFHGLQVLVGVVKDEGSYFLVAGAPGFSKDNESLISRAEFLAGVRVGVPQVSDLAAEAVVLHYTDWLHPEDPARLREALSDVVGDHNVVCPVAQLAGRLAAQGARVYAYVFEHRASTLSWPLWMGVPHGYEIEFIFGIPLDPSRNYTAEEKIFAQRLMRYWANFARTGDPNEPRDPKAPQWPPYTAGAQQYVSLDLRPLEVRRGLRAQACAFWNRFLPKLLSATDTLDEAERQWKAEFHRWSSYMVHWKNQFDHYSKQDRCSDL
UniProt P22303, 32-614 D105A: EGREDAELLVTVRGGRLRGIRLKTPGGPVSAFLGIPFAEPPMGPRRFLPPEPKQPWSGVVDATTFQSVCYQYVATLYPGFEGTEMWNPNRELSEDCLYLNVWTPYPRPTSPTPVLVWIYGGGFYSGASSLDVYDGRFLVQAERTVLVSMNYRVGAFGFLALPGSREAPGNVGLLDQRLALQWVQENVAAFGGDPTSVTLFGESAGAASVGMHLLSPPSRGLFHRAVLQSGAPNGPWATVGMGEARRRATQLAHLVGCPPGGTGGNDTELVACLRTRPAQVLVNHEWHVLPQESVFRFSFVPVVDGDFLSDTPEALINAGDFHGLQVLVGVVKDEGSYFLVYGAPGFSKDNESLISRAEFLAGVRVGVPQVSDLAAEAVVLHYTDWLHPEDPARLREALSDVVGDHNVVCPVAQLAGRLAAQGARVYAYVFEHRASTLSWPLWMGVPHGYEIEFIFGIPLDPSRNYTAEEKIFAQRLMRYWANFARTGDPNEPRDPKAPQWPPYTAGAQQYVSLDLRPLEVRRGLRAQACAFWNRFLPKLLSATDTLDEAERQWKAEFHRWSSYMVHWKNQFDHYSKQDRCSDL
UniProt P22303, 32-614 N314A: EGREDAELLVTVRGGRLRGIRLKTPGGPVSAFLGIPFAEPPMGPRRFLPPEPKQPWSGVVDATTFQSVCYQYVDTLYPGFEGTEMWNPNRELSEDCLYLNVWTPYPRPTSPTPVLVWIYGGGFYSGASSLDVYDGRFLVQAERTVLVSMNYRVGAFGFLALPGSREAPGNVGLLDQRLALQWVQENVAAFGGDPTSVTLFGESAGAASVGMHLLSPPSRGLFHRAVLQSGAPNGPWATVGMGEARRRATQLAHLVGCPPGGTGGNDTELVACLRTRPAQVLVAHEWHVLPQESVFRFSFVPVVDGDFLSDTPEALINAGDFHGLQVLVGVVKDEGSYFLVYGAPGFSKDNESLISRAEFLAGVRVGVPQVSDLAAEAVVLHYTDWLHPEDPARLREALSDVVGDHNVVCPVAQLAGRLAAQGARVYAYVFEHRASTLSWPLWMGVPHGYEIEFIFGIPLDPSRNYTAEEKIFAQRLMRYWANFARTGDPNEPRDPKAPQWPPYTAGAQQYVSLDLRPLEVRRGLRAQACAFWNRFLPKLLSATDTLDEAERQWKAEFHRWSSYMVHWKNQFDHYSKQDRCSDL
UniProt P22303, 32-614 Y103A: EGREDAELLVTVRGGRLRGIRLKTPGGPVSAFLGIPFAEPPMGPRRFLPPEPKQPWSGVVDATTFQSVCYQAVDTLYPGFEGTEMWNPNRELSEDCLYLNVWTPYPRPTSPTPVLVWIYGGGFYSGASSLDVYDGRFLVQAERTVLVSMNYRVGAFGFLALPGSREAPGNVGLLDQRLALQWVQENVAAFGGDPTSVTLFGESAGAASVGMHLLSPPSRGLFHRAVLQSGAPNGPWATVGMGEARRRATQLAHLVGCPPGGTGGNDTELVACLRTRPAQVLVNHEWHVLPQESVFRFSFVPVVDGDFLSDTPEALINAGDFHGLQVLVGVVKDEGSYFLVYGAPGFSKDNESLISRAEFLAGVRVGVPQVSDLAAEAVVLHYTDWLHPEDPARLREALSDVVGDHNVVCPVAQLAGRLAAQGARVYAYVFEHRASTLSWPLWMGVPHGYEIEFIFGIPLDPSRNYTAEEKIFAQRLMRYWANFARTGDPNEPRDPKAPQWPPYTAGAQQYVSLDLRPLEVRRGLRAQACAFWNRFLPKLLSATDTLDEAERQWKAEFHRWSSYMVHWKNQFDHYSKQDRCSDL
UniProt P22303, 32-614 N314D: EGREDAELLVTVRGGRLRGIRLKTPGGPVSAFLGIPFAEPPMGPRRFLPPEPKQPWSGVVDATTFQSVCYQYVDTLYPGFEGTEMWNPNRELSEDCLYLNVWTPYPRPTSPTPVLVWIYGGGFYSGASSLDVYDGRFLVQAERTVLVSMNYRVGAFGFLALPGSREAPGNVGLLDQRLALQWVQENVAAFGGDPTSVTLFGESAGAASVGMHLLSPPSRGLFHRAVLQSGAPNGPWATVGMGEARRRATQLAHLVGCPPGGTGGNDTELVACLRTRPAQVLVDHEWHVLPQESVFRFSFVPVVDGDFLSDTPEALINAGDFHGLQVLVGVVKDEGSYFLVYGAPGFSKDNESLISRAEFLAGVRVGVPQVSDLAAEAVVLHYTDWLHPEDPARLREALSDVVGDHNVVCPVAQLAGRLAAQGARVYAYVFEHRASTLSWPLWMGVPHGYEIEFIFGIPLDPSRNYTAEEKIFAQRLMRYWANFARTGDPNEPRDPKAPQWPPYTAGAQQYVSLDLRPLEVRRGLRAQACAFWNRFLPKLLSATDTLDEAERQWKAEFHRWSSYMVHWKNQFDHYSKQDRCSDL

Experiments:
hAChE D74N = hAChE D74N (Homo sapiens, UniProt P22303, D105N)
mAChE D283N = target: T1, mAChE D283N (Mus musculus, UniProt P21836, D314N)
T1 sequence (P21836 32-614 D314N): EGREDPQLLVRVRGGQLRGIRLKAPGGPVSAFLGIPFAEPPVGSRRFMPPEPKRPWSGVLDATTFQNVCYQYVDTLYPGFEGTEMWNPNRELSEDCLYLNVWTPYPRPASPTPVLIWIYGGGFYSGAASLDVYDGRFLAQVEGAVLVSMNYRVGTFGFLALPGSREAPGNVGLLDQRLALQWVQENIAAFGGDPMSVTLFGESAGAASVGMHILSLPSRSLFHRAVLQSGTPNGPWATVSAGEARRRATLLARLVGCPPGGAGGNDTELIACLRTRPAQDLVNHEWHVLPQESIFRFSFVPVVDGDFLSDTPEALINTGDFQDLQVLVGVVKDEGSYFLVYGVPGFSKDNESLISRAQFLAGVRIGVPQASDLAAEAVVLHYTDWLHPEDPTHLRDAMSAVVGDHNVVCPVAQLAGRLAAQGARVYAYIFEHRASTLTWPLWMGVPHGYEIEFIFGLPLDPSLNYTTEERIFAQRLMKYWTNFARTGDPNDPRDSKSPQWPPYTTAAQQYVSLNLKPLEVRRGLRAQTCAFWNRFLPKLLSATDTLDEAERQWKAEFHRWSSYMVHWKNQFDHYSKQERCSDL

hAChE Y341A = hAChE Y341A (Homo sapiens, UniProt P22303, Y372A)
hAChE D74A = hAChE D74A (Homo sapiens, UniProt P22303, D105A)
hAChE N283A = hAChE N283A (Homo sapiens, UniProt P22303, N314A)
hAChE Y72A = hAChE Y72A (Homo sapiens, UniProt P22303, Y103A)
hAChE N283D = hAChE N283D (Homo sapiens, UniProt P22303, N314D)

CN(C)c1ccc([C+](c2ccc(N(C)C)cc2)c2ccc(N(C)C)cc2)cc1.[Cl-] [CV, tris(4-(dimethylamino)phenyl)methylium chloride]
Hill Coefficient (hAChE D74N): −2.1 (−2.44–−1.86) | Hill Coefficient (mAChE D283N): −1.8 (−1.92–−1.64) | Hill Coefficient (hAChE Y341A): −2.0 (−2.26–−1.82) | Hill Coefficient (hAChE D74A): −1.7 (−1.83–−1.49) | Hill Coefficient (hAChE N283A): −1.8 (−1.86–−1.68) | Hill Coefficient (hAChE Y72A): −1.8 (−1.96–−1.73) | Hill Coefficient (hAChE N283D): −1.9 (−2.01–−1.75)
